Results from patent US4022791A (priority 1975, dated 1977).

Columns and labels:
Settings in all cases: 100 mg./kg. IP
[1] = tested on: mice; assay: Hot Plate Test; assay type: in vivo, mouse
[2] = tested on: mice; assay: Tail Flick Test; assay type: in vivo, mouse
[3] = tested on: mice; assay: Mouse Tail Pinch; assay type: in vivo

COc1ccc(Cl)c2c1CCC(CN1CCC3(CC1)C(=O)N(C)CN3c1ccccc1)=C2
20%: Hot Plate .5 hr (percentage of mice showing analgesia) ([1]; 0.5 hour after administration)
0%: Hot Plate 2 hr (percentage of mice showing analgesia) ([1]; 2.0 hours after administration) | Tail Flick .5 hr (percentage of analgesia response) ([2]; 0.5 hour after administration) | Tail Flick 2 hr (percentage of analgesia response) ([2]; 2.0 hours after administration) | Tail Pinch .5 hr (percentage of mice showing analgesia) ([3]; 0.5 hour after administration) | Tail Pinch 2 hr (percentage of mice showing analgesia) ([3]; 2.0 hours after administration)
